{"source": "paper PMC4980917", "target": "C99, the 99 residue C-terminal fragment of the human amyloid precursor protein, recombinant, in LMPG micelles (human)", "test": "NMR titration", "data": [{"substance": "recombinant wild type human transthyretin (TTR) tetramer (from UniProt P02766 21-147) (natural protein)", "values": [{"measurement": "KD from the peak of A665", "result": 280, "unit": "µM"}, {"measurement": "KD from the peak of G659", "result": 252, "unit": "µM"}, {"measurement": "KD from the peak of T668", "result": 384, "unit": "µM"}]}]}
